Values of other authors in US12637471B2, “Heterocyclic compounds, compositions, methods of preparation and uses thereof” (Organon R&D Finland Ltd, priority 2021, dated 2026).

Amino acid sequences for entries named in this document (tags omitted).
UniProt P42330, whole entry: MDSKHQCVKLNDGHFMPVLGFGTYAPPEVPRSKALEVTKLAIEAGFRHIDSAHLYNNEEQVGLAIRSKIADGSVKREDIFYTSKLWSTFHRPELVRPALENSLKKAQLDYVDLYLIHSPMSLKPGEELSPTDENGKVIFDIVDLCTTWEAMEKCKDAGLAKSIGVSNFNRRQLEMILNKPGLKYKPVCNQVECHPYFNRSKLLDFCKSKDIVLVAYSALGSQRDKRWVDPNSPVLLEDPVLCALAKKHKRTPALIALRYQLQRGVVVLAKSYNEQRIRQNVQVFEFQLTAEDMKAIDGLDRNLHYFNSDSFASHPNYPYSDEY

Target: AKR1C3 (Homo sapiens, UniProt P42330)
Conditions: read-out: AKR1C3 IC50-value; literature value; cited from earlier work

In the case of `O=C(N1CCOCC1)N1CCN(c2ccc(Cl)cc2Cl)CC1`, the IC50 is listed as 0.11 µM.
